Source: patent US6153391A, “Interruption of binding of MDM2 and P53 protein and therapeutic application thereof” (University of Dundee, priority 1998, dated 2000)

The chains behind the UniProt entries cited, without tags or fusion partners.
UniProt P23804, whole entry: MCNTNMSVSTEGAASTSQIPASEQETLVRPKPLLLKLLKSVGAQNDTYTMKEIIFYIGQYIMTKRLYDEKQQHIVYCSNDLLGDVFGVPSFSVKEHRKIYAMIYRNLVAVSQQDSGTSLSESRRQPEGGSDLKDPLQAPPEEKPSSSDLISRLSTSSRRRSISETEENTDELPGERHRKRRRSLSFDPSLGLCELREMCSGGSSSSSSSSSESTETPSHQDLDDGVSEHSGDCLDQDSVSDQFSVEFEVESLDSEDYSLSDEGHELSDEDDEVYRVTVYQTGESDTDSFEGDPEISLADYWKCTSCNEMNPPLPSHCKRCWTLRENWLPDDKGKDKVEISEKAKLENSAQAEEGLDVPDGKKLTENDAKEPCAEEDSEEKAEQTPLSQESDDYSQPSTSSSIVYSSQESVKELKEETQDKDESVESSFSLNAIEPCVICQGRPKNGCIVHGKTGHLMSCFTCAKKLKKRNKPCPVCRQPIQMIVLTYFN

Target: T1, mouse MDM2 (Mus musculus, UniProt P23804)
T1 construct: gene PCR-cloned from mouse prostate cell line
Experiment: ELISA of MDM2 binding to immobilised biotinylated p53 peptides (peptide library, alanine and conserved substitution series)
Settings: 15-mer biotinylated peptides on streptavidin ELISA plates; SF9 insect cell extract expressing mouse MDM2; detection with 4B2

binding of MDM2 to p53 library peptide: bind MDM2
Sequence: QETFSDLWKLLPENN [Peptide 6]
